# Data as given in PubChem BioAssay AID1222 (Sanford-Burnham Center for Chemical Genomics, 2008).
# The list shows a part of the results. Measured potencies and affinities stand elsewhere. Calls of active or inactive are those of the source.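 How the source made its calls: active means EC50 below 50 µM in the dose-response confirmation; inactive means the rest.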
# Test: rescue of cells from ER stress-induced death, primary screen, 384-well, CSM14.1, thapsigargin, ATP luminescence (AID 1222);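 further: death triggered by thapsigargin at about 15 µM added after 2 h compound pretreatment; cell ATP read after overnight thapsigargin exposure of roughly 18 to 22 hours; reference of the scale not given here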
# Conditions: CSM14.1 thapsigargin-induced death rescue, at 20 µM, stronger effect = higher value
row,Structure (SMILES),cellular ATP content (survival)
1,CCOC(=O)c1ccc(NP(C)(=O)Oc2ccc(F)cc2)cc1 (configuration not stated),inactive: -3.8%
2,COc1ccc(OP(C)(=O)Nc2ccc(SC(F)(F)F)cc2)cc1 (configuration not stated),inactive: -1.4%
3,CP(=O)(Nc1ccccc1)Oc1ccc(F)cc1 (configuration not stated),inactive: -0.9%
4,CCN(CC)CCCOC(=O)C(O)(c1ccccc1)C1CCCCC1 (configuration not stated),inactive: -2.9%
5,CP(=O)(Nc1ccccc1F)Oc1ccccc1 (configuration not stated),inactive: 1.5%
6,CC(C)c1ccc(OP(C)(=O)Nc2ccc(SC(F)(F)F)cc2)cc1 (configuration not stated),inactive: -3.7%
7,O=C(OCCN1CCN(CCOCc2ccccc2)CC1)C(O)(c1ccccc1)c1ccccc1,inactive: -1.2%
8,CCOP(C)(=S)SCC(=O)NC(C)(CC)C(=O)O (configuration not stated),inactive: -4.2%
9,CP(=O)(Nc1ccc2c(c1)OCCO2)Oc1ccccc1 (configuration not stated),inactive: 2.3%
10,CN(C)CCOC(=O)C(O)(c1ccccc1)C1CCCCC1 (configuration not stated),inactive: -0.2%
11,COc1ccc(NP(C)(=O)Oc2ccccc2OC)cc1 (configuration not stated),inactive: 0.3%
12,COc1ccc(OP(C)(=O)Nc2cccc(Br)c2)cc1 (configuration not stated),inactive: -0.8%
13,O=[N+]([O-])c1cc([N+](=O)[O-])c(NCC2CCS(=O)(=O)C2)c([N+](=O)[O-])c1 (configuration not stated),inactive: 4.8%
14,CCOC(=O)c1ccc(NP(C)(=O)Oc2ccc(Cl)cc2)cc1 (configuration not stated),inactive: 2.7%
15,CP(=O)(OC12CC3CC(CC(C3)C1)C2)OC12CC3CC(CC(C3)C1)C2,inactive: 2.2%
16,COc1ccccc1OP(C)(=O)Nc1c(C)n(C)n(-c2ccccc2)c1=O (configuration not stated),inactive: -1.4%
17,CCc1ccc(OP(C)(=O)Nc2cccnc2)cc1 (configuration not stated),inactive: -0.8%
18,CP(=O)(Oc1ccccc1)N1CCOC1=O (configuration not stated),inactive: 1.6%
19,COc1ccc(OP(C)(=O)Nc2ccc(Br)cc2)cc1 (configuration not stated),inactive: 4.8%
20,CCN(CC)CC(O)COC(=O)C(O)(c1ccccc1)C1CCCCC1 (configuration not stated),inactive: -0.1%
21,CN(C)C(=O)c1c([N+](=O)[O-])cc([N+](=O)[O-])cc1[N+](=O)[O-],inactive: -0.8%
22,COc1ccccc1OP(C)(=O)Nc1ccccc1Br (configuration not stated),inactive: -0.2%
23,CC(C)(C)c1ccc(OP(C)(=O)O)cc1,inactive: 2%

row,Structure (SMILES),cellular ATP content (survival)
1,CP(=O)(Nc1ccc(Cl)cc1)Oc1ccc(F)cc1 (configuration not stated),inactive: 0.2%
2,COc1ccc(OP(C)(=O)Nc2ccccn2)cc1 (configuration not stated),inactive: 0.1%
3,CN(C)CCOC(=O)C(O)(c1ccccc1)C1CCCC1 (configuration not stated),inactive: 0.5%
4,COc1ccccc1OP(C)(=O)Nc1ccc(C)cc1C (configuration not stated),inactive: -1%
5,CCc1ccc(OP(C)(=O)O)cc1,inactive: -0.6%
6,Cc1c(NP(C)(=O)Oc2ccc(C(C)C)cc2)c(=O)n(-c2ccccc2)n1C (configuration not stated),inactive: 0.4%
7,O=[N+]([O-])c1cc([N+](=O)[O-])c(Nc2ccccn2)c([N+](=O)[O-])c1,inactive: 4.4%
8,COc1ccccc1OP(C)(=O)Nc1ccc(C)c(C)c1 (configuration not stated),inactive: -1.2%
9,COc1ccc(OP(C)(=O)Nc2ccccc2Br)cc1 (configuration not stated),inactive: 0.1%
10,Cc1cc(C)cc(OP(C)(=O)Nc2cccc(C(F)(F)F)c2)c1 (configuration not stated),inactive: -0.3%
11,CP(=O)(Nc1ccc(Cl)cc1Cl)Oc1ccccc1 (configuration not stated),inactive: -0.2%
12,CP(=O)(OCCOc1ccccc1)OCCOc1ccccc1,inactive: 0.3%
13,Cc1nc2ccc3ccccc3c2o1.O=[N+]([O-])c1cc([N+](=O)[O-])c(O)c([N+](=O)[O-])c1,inactive: -1.6%
14,O=[N+]([O-])c1ccc2c(c1)C=Nc1ccccc1O2,inactive: -1.3%
15,CC(C)(C)c1ccc(OP(C)(=O)Nc2ccc(SC(F)(F)F)cc2)cc1 (configuration not stated),inactive: -0.2%
16,Cc1cc(C)cc(OP(C)(N)=O)c1 (configuration not stated),inactive: -0.4%
17,COc1ccc(OP(C)(=O)Nc2cccc(F)c2)cc1 (configuration not stated),inactive: -2.4%
18,COc1ccccc1OP(C)(=O)Nc1cc(Cl)ccc1C (configuration not stated),inactive: 1.3%
19,Cc1ccc(NP(C)(=O)Oc2ccccc2)c(C)c1 (configuration not stated),inactive: 1.6%
20,COc1ccccc1OP(C)(=O)Nc1ccc(C)cc1 (configuration not stated),inactive: 1.2%
21,CCOC(=O)c1ccc(NP(C)(=O)Oc2ccccc2)cc1 (configuration not stated),inactive: -0.9%
22,CCN(CC)CCCOC(=O)C(O)(c1ccccc1)c1ccccc1,inactive: -0.1%
23,Cc1cc(C)cc(OP(C)(=O)Nc2ccc(SC(F)(F)F)cc2)c1 (configuration not stated),inactive: 0.5%

row,Structure (SMILES),cellular ATP content (survival)
1,CP(=O)(NC(=O)Nc1ccccc1)Oc1ccccc1 (configuration not stated),inactive: -1.4%
2,CP(=O)(Oc1ccccc1)OC(c1ccccc1)C(F)(F)F (configuration not stated),inactive: -0.2%
3,Cc1cccc(C)c1OP(C)(=O)Nc1ccc(SC(F)(F)F)cc1 (configuration not stated),inactive: -1.4%
4,CP(=O)(Nc1ccccn1)Oc1ccc(Cl)cc1 (configuration not stated),inactive: 0.2%
5,CCOC(=O)c1ccc(NP(C)(=O)Oc2ccc(OC)cc2)cc1 (configuration not stated),inactive: 0.4%
6,CP(=O)(Nc1ccccc1Br)Oc1ccccc1 (configuration not stated),inactive: -3%
7,COc1ccccc1OP(C)(=O)Nc1ccccc1 (configuration not stated),inactive: -0.8%
8,CP(=S)(Nn1cnnc1)Oc1ccccc1 (configuration not stated),inactive: -1.4%
9,CN(C)C1(CNC(=O)c2ccc(S(C)(=O)=O)cc2)CCCCC1,inactive: -1.2%
10,CCCOc1ccc(NP(C)(=O)Oc2ccc(Cl)cc2)cc1 (configuration not stated),inactive: 1.1%
11,CP(=O)(Nc1ccc(SC(F)(F)F)cc1)Oc1ccccc1 (configuration not stated),inactive: -0.6%
12,CN1CCCCC1COC(=O)C1(O)c2ccccc2CCc2ccccc21 (configuration not stated),inactive: -5%
13,COc1ccccc1OP(C)(=O)Nc1c(C)cccc1C (configuration not stated),inactive: 6.3%
14,O=[N+]([O-])c1cc([N+](=O)[O-])c(-n2nnc3ccccc32)c([N+](=O)[O-])c1,inactive: -0.2%
15,Cc1nc2ccc3ccccc3c2s1.O=[N+]([O-])c1cc([N+](=O)[O-])c(O)c([N+](=O)[O-])c1,inactive: 3.5%
16,CCOC(=O)c1ccc(NP(C)(=O)Oc2cc(C)cc(C)c2)cc1 (configuration not stated),inactive: -2%
17,Cc1cc(C)cc(OP(C)(=O)Nc2ccc(C)cc2C)c1 (configuration not stated),inactive: 0.8%
18,COc1cc(C(=O)NCC2(N3CCOCC3)CCCCC2)cc(Cl)c1OC(C)C,inactive: -0.1%
19,Cc1ccc(C)c(NP(C)(=O)Oc2ccccc2)c1 (configuration not stated),inactive: -0.8%
20,Cc1cc(C)cc(OP(C)(=O)Nc2ccccn2)c1 (configuration not stated),inactive: -0.3%
21,CC1=NCCc2c1[nH]c1ccccc21.O=[N+]([O-])c1cc([N+](=O)[O-])c(O)c([N+](=O)[O-])c1,inactive: -1.9%
